The source of these data is patent EP0525063B1, “Use of specific fatty acids in the manufacture of a medicament for their Iontophoresis delivery” (priority 1990, dated 1991).

Data set [1] in a line: Iontophoretic drug delivery through skin in vertical flow-through diffusion cell, skin type not specified for these values. To be noted: delivery of HM-HCl 0.1M, enhancer 100 mg/ml (10.0%).
A short description of data set [2]: Iontophoretic drug delivery through skin in vertical flow-through diffusion cell, HPLC of receptor solution (pig skin).

Regarding `CCCCCCCCCC(=O)O` [Capric acid, decanoic acid], the “Steady State Delivery Rate ± sd” value in data set [1] (E/W 60/40, current 1 mA) amounted to 4674 ± 679 µg/h.

In the case of `CCCCCCCC(=O)O` [Caprylic acid, octanoic acid], in data set [1] (E/W 48/52, current 1 mA), the “Steady State Delivery Rate ± sd” value is 4289 ± 597 µg/h.

Turning to `CCCCCCCC/C=C\CCCCCCCC(=O)O` [Oleic acid, cis-9-octadecenoic acid], the “Steady State Delivery Rate ± sd” value was determined as 1280 ± 221 µg/h in data set [2] (delivery of oxymorphone, oleic acid 2 mg/ml (0.2%) in 56/44 (E/W), current 0 mA); 2204 ± 140 µg/h in data set [2] (delivery of oxymorphone, oleic acid 2 mg/ml (0.2%) in 56/44 (E/W), current 0.25 mA); 2597 ± 338 µg/h in data set [2] (delivery of oxymorphone, oleic acid 2 mg/ml (0.2%) in 56/44 (E/W), current 0.50 mA); 3476 ± 465 µg/h in data set [2] (delivery of oxymorphone, oleic acid 2 mg/ml (0.2%) in 56/44 (E/W), current 0.75 mA); 3806 ± 512 µg/h in data set [2] (delivery of oxymorphone, oleic acid 2 mg/ml (0.2%) in 56/44 (E/W), current 1.0 mA); 1734 ± 102 µg/h in data set [2] (delivery of oxymorphone, oleic acid 5 mg/ml (0.5%) in 62/38 (E/W), current 0 mA). In addition, the “Steady State Delivery Rate ± sd” value in data set [2] (delivery of oxymorphone, oleic acid 5 mg/ml (0.5%) in 62/38 (E/W), current 0.25 mA) was 2832 ± 91 µg/h; in data set [2] (delivery of oxymorphone, oleic acid 5 mg/ml (0.5%) in 62/38 (E/W), current 0.50 mA), 3699 ± 222 µg/h; in data set [2] (delivery of oxymorphone, oleic acid 5 mg/ml (0.5%) in 62/38 (E/W), current 0.75 mA) it was 4583 ± 304 µg/h; in data set [2] (delivery of oxymorphone, oleic acid 5 mg/ml (0.5%) in 62/38 (E/W), current 1.0 mA), 5597 ± 433 µg/h; in data set [2] (delivery of oxymorphone-HCl, oleic acid 0.25 mg/ml (0.025%), E/W 48/52, 1 mA) it was 916 ± 38 »g/hr; in data set [2] (delivery of oxymorphone-HCl, oleic acid 0.50 mg/ml (0.050%), E/W 48/52, 1 mA), 1583 ± 613 »g/hr. For the same molecule, the “Steady State Delivery Rate ± sd” value in data set [2] (delivery of oxymorphone-HCl, oleic acid 1.0 mg/ml (0.10%), E/W 52/48, 1 mA) is reported as 2230 ± 877 »g/hr; in data set [2] (delivery of oxymorphone-HCl, oleic acid 2.0 mg/ml (0.20%), E/W 56/44, 1 mA) it was 3806 ± 512 »g/hr; in data set [2] (delivery of oxymorphone-HCl, oleic acid 2.5 mg/ml (0.25%), E/W 56/44, 1 mA, two identical tests on different days), 5020 ± 748 »g/hr; in data set [2] (delivery of oxymorphone-HCl, oleic acid 5.0 mg/ml (0.50%), E/W 67/33, 1 mA), 5597 ± 433 »g/hr.
